Experimental data as given in patent US9447103B2, “Inauhzin analogues that induce P53, inhibit cell growth, and have antitumor activity” (Indiana University Research and Technology Corp., priority 2012, dated 2016).

Test: In vivo biochemical toxicity assay (Alanine transferase, total bilirubin)
Conditions: i.p. 50 mg/kg once per day for two weeks, blood

CCC(Sc1nnc2c3ccccc3n(CCO)c2n1)C(=O)N1c2ccccc2Cc2ccccc21 (stereo not shown) [Compound 37, 1-(acridin-10(9H)-yl)-2-((5-(2-hydroxyethyl)-5H-[1,2,4]triazino[5,6-b]indol-3-yl)thio)butan-1-one]
toxicity: Alanine transferase and total bilirubin: without observed toxicity
